Assay results published in patent US5726302A, “Water soluble adenosine kinase inhibitors” (Gensia Inc., priority 1995, dated 1998).

Tested on: male SA rats
Assay: Anticonvulsant activity, maximal electroshock (MES) model
Type: in vivo
Details: Rattus norvegicus, ip, 1 h
Protocol: The anticonvulsant activity of the tested compounds was evaluated in male SA rats (100-150 g, Simonsen) using the maximal electroshock (MES) model described in Swinyard et al., Antiepileptic Drugs, 3d Ed. at 85-102 (Levy, et al., eds.), N.Y.: Raven Press (1989). The rats were maintained on a 12/12 light/dark cycle in temperature controlled facilities with free access to food and water. For p.o. administration, the animals are fasted overnight, prior to the experiment. One hour prior to seizure testing, the animals were injected interperitoneally (ip) or orally (per os, […]) with one of various doses of test compound dissolved in DMSO or PEG 400.
This endpoint was expressed as the percentage of animals in which the response was inhibited.

C[C@H]1O[C@@H](n2cc(-c3ccccc3)c3c(Nc4ccc(CN(C)C)cc4)ncnc32)[C@H](O)[C@@H]1O [Compound 1, 4-N(N,N-Dimethylaminomethylphenyl)amino-5-phenyl-7-(5-deoxy-β-D-ribofuranosyl)pyrrolo[2,,3-d]pyrimidine]
ED50: 5 mg/kg
